The target of this assay is BZω3 receptor (Rattus norvegicus, UniProt P16257). The assay can be described thus: BZω3 (peripheral) benzodiazepine receptor binding assay, [3H] 4'-chlorodiazepam (Ro 5-4864). The following applies: read-out: ω3 IC50; rat kidney membrane, [3H] Ro 5-4864 0.5 nM, 150 minutes at 0° C.; tested form: 1/4 hydrate.

Sequences of proteins named here, by UniProt entry; tags and fusion partners are left off.
UniProt P16257, whole entry: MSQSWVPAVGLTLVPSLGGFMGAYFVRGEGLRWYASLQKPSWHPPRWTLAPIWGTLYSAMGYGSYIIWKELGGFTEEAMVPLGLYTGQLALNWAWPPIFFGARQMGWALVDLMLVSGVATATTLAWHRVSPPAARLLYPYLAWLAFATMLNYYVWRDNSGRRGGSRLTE

Each structure is given as a SMILES string. pIC50: −log10 of the molar value.

The term pIC50 denotes the IC50 on a negative log10 scale, so that one unit is a factor of ten. On to `CCn1c(=O)n(CC(=O)N(C)c2ccccc2)c2nc(-c3ccccc3)ncc21`, for which the negative-log IC50 (pIC50) is 8.96.

(Values after patent US6372740B1, “2-aryl-8-oxodihydropurine derivative, process for the producing the same, medicinal compositions containing the same, and intermediates thereof” (Dainippon Pharmaceutical Co., Ltd., priority 1997, dated 2002).)
